# scFv variants of Ab-14 (light chain) against a SARS-CoV-2 spike peptide

Data: MIT Lincoln Laboratory AlphaSeq set, Li et al. 2023, doi:10.1038/s41467-023-39022-2, as distributed in FLAb.

All variants were tested on one target, the spike HR2 peptide PDVDLGDISGINAS (SARS-CoV-2).

Ab-14 is the parent antibody, in scFv form: VH, then three GGGGS repeats, then VL. The heavy chain is unchanged in all variants.
VH: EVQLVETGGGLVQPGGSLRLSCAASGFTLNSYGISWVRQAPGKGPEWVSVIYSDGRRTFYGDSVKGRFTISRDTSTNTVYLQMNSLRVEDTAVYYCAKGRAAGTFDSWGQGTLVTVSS
VL: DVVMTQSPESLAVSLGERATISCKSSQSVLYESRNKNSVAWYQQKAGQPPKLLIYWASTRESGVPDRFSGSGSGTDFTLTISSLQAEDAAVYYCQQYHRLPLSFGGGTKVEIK

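Phage display of a naive human antibody library on the peptide gave the parent. These sequences belong to a second round, designed from the earlier measurements on random variants of the parent. Group labels follow the data file (Ctrl: baseline library sampled from a position-specific scoring matrix, with some repeated check sequences; En: ensemble of fine-tuned language models; GP: Gaussian process model; HC: hill climbing; Gen: genetic algorithm; Gibbs: Gibbs sampling; a sequence that several methods proposed may carry one label only). The scFvs were displayed on barcoded MATa yeast, the peptide on MATalpha yeast. The frequency of each diploid, read from paired DNA barcodes, reflects how well the two displayed proteins bind. Each replicate has its own calibration line, from reference interactions of the BCL2 family. Each pool was mated in six replicate cultures.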

Variants are written as CDR1, CDR2 and CDR3 of the light chain (limits as in the source). Parent: KSSQSVLYESRNKNSVA, WASTRES, QQYHRLPLS. Values are log10 of the apparent Kd in nM; lower means stronger binding. Replicates are averaged; those with no signal do not enter the mean. "no signal" means that the variant was in the library but no mating with the target was seen in any replicate; the authors take this as a sign of poor binding, and no number exists.

CDR-L1 | CDR-L2 | CDR-L3 | group | mean log10 Kd (nM) | replicates with signal
KINGVLINFGEDMNAIA | QENISNL | QQYFHLPLS | En_Gibbs | 1.58 | 4/6
KISQVYLYESRNKNSVA | GASTRES | QQYHRLPLS | GP_HC | 0.02 | 6/6
KQSDSVLYESRNKNSVA | DASTRES | QQYHRLPLS | GP_HC | -0.27 | 6/6
KIDQQTSYDNGRERAIA | DVTIRFW | QQYARLPLL | En_Gibbs | 1.76 | 6/6
KYSQSQGYESRNKWSVA | NASTRES | QQYHRLPLS | GP_Gibbs | 0.20 | 6/6
KSSQNVLYESRNINSVA | HASTRES | QSYHRLPLS | Ctrl | no signal | 0/6
KLEQSALYESRNKNSVA | NASTRES | QQYHRLPLS | GP_Gen | -0.26 | 6/6
RSSQSVLDESRNKNSVA | WASTRES | QQYHRLPLS | Ctrl | 1.23 | 6/6
TLTQVQGMESHAKNSVA | DLSTRGS | QQYHRLPLS | En_HC | 0.14 | 6/6
KQSQAFLMESRNKNSVA | DANTRES | QQYHRLPLS | GP_HC | -0.01 | 6/6
HLSWVDLYESRNKNSVA | NASTRES | QQYHRLPLS | GP_HC | -0.13 | 6/6
KSSQSVLYESRNKNSMA | WASTRES | QQYHRLPLS | Ctrl | 1.72 | 5/6
KLSQSVLFWGHAINSVA | EMVTREY | QQYDRLPLS | En_HC | 2.36 | 3/6
KVSQSVLYESRNKNSVA | NASTRES | QQYHRLPLW | GP_Gen | 0.01 | 6/6
KLEQSVPYESRNKNSVA | NASQRES | QQYHRLPLS | GP_Gen | 0.83 | 6/6
KSSQSVLYESRNKNSVA | SASLRES | QQYHRLPLS | Ctrl | 0.45 | 6/6
KSLQSHLYESRNKNSVA | HASTRED | QQYHRLPLS | GP_HC | 0.44 | 6/6
YMSQSVLNESRNKNSVA | WASTRES | QQYDRLPLS | Ctrl | 2.03 | 6/6
NLGGEDANDTRGMAAVA | DVSEVGE | QHYNRLPLS | En_Gibbs | 1.10 | 6/6
SLGLVTMLEYAGRNSVA | NNSTREA | QQYDRLPLS | En_Gen | 2.73 | 1/6
MSSQSVLYDSRNKNSVA | WASTRES | QQYHRLELS | Ctrl | no signal | 0/6
KLSLFYRLETRNKNSVA | DNSTRES | QDYDRLPLS | En_HC | 2.01 | 3/6
KISMMYRYESQNKNSIA | EMSRREN | QQYHRLPLS | En_HC | 0.08 | 6/6
RLDSVMEQLTNRAQNVA | NATTVIA | QSYMRLPLV | En_Gibbs | 0.81 | 6/6
MISQLFMYGSRNRNSVA | QASTRES | QQYDRLPLI | En_HC | 0.64 | 6/6
KFGQMVLTGSYVKNSVA | QSSTREN | QQYHRLPLS | En_HC | 0.28 | 6/6
KLQQSWLYESRNKNSVA | DASTRLS | QQYHRLPLS | GP_Gen | -0.02 | 6/6
QLGKNQSGDTLSQNAIA | HDALLVD | QQYFRLPLL | En_Gibbs | 1.41 | 6/6
KLPQSGLYESRNKNSVA | EASTRES | QQYHRLPLS | GP_Gen | 0.94 | 6/6
KLSQSHLYESRNKNNVA | GASTRES | QQYHRLPLS | GP_Gen | -0.41 | 6/6
KVLQSVVYEGRNKNSVA | NASTRED | QQYHRLPLS | GP_HC | 0.03 | 6/6
KWSQSDDLESRNHNSVA | HASTRCS | QQYHRLPLS | GP_Gibbs | 0.28 | 6/6
MVSQLMVWGLHAKNSIA | EAAMRLN | QQYDRLPLF | En_Gen | 1.97 | 3/6
TISEVMNTLTREGNNVA | DLQEREK | QQYFRLPLT | En_Gen | 1.48 | 6/6
KLRQSTHIESFNKNNVA | EMSTRES | QSYDRLPLS | En_HC | 0.95 | 6/6
KSSQSVLYESDNKNSVA | HASTRES | QQQHRLPNS | Ctrl | 1.85 | 1/6
MLSQMFAIGMKVSNSVA | QVSTRFE | QQYDRLPLI | En_Gen | 1.20 | 5/6
TIAQSMLYLSNHKNSIA | QAETRES | QQYHRLPIS | En_HC | 1.71 | 6/6
KLYQSHLYESRNKNSVA | NASTRLS | QQYHRLPLS | GP_Gen | 0.26 | 6/6
KISQMARVGSTHGNSIA | EEQTRAK | QQYHRLPLS | En_Gen | 0.53 | 5/6
KSSGSVLYEMRNDNSVA | WASTRES | QQFHRLPLS | Ctrl | no signal | 0/6
KLSQSVDYESRNKNSVA | DASTRLS | QQYHRLPLS | GP_Gen | -0.16 | 6/6
KSSQSVLYESRNQNAVA | NASTRES | QQYHRLPLM | Ctrl | 0.57 | 6/6
MISQLYNSGQFAINSVA | QASLRCN | QQYDRLPLM | En_Gen | 1.70 | 6/6
KLVQSVDYEPRNKQSVA | DASTRLS | QQYHRLPLS | GP_Gibbs | 0.27 | 6/6
KLVGVSDNDMNPSHNIA | DVSMVDN | QQYHRLPLD | En_Gibbs | 0.73 | 6/6
KAQFSCLYESRNQNSVA | SASQRLS | QQYHRLPLS | GP_Gibbs | 0.12 | 6/6
KLLQSVNYGMRALNSVA | QMETRED | QQYDRLPLS | En_HC | 2.61 | 4/6
KALQSVLYESRNKISVA | WASTRES | QQYHRLPLS | Ctrl | 0.29 | 3/6
KLSMSWLYESRNKNNVA | NASTRES | QQYHRLPLS | GP_Gen | -0.55 | 6/6
KLSQSVLYESRNKNNVA | NASKRES | QQYHRLPLS | GP_Gen | -0.45 | 6/6
KSSQPVLYESRNKNSVA | WASEREV | QQYHRLPLS | Ctrl | 1.72 | 6/6
KSSQNVLYQSRNKNSVA | WASTRES | QQYHRLPLS | Ctrl | 2.96 | 3/6
MISEAVMYESRNRNSVA | DNSTRED | QCYDRLPLS | En_HC | no signal | 0/6
KSSQSVTYESRNKNSVA | WASTRES | QQYHRLPLS | Ctrl | 1.81 | 6/6
KLEQSWLYESRNKNSVA | NASQRES | QDYHRLPLS | GP_Gen | 0.05 | 6/6
KMEMDFRGNDVNRNSIA | SDEAVTR | QHYARLPLS | En_Gibbs | no signal | 0/6
KFSQKVLYEHRDKNSVA | NASTRES | QQYHRLPLS | GP_HC | 0.38 | 6/6
KLQQSQLYESRNKNSVA | NASTRMS | QQYHRLPLS | GP_Gen | 0.48 | 6/6
KISQMTRVGSTKGNSIA | EEVTRAK | QQYHRLPLA | En_Gen | 1.59 | 6/6
NFSEQQKTDREQQYSIA | GTDIREK | QQYGRLPLT | En_Gibbs | 0.79 | 6/6
KSSQSVLGESNNKNSVA | WASTRES | QQYQRLPLS | Ctrl | no signal | 0/6
KFEQLVGPEQRNKNSVA | NASLRED | QQYHRLPLS | GP_Gibbs | 0.31 | 6/6
KLSMETATLTGHMDSIA | HVEIRWA | QQYHKLPLI | En_Gibbs | 2.04 | 2/6
KSSQSVLYESRDKNSVA | WASTRES | QQYHRLPLS | Ctrl | 1.43 | 6/6
KSHQSVLYESPNKNSVA | WASTRES | QQYHRLPLS | Ctrl | 2.39 | 6/6
KSSQSVLYESRNKNNVA | EASTRES | QQYHRLPLS | Ctrl+GP_Gen | 0.09 | 6/12
KVSEFMKGLMMRTDSIA | DNTTREN | QQYDRLPLS | En_Gen | 2.13 | 3/6
KVSQSMLYESRNKNSVA | NASTRES | QQYHRLPLQ | GP_Gen | -0.30 | 6/6
KLLQNVTTEGKNRNNVA | HMTMREQ | QQYWRLPLS | En_HC | 1.75 | 6/6
ILSQSVLMGSHLKNSVA | QASTRFQ | QQYHRLPLS | En_HC | 0.70 | 6/6

Values of this round are not directly comparable with the first-round values of the same sequences. The authors' rule: three or more of the six replicates give a measured affinity, fewer mean a poor binder. Empty control strains, which show no peptide, gave a signal in 4% of pairings with all light chain designs; the median was 2.64 and 95% of these signals were weaker than 1.59. No background was subtracted. Of ten entries with the parent sequence, four were seen in most replicates (averages 0.34 to 2.37), three in one and three in none, so single entries are noisy. Some sequences occur more than once in the pool; their replicates are pooled.